# Literature values in US20200176101A1, “METHODS AND MEDICAL USES RELATING TO THE TREATMENT OF HYPOGLYCAEMIA” (Zealand Pharma A/S, priority 2017, published 2020).
# Values joined by “and” are separate entries in the source; they are usually repeats but may differ in a detail not shown here. Equal values may be shown once.
substance,measurement,setting,value
insulin aspart,tmax (time from dose to maximum serum concentration),"mean, SC insulin, one row per patient 1-8",67.9 min and 48.5 min and 46.5 min and 68.5 min and 55.4 min and 57.6 min and 57.3 min and 40.8 min
same,"CIF, I (apparent insulin clearance)","mean, one row per patient 1-8",17.4 mL/kg/min and 17.3 mL/kg/min and 24.6 mL/kg/min and 23.7 mL/kg/min and 26.8 mL/kg/min and 18.9 mL/kg/min and 18.5 mL/kg/min and 14.8 mL/kg/min
same,Ib (steady state insulin concentration),"range of means, one row per patient 1-8, type 1 diabetes",7.8-9.4 mU/l and 5.2-8.2 mU/l and 3.0-8.5 mU/l and 16.8-22.6 mU/l and 4.7-9.1 mU/l and 6.6-7.8 mU/l and 10.0-11.2 mU/l and 10.3-13.4 mU/l
